{"source": "patent US9956204B2", "about": "“Composition for exterminating scuticociliates in fish including mebendazole” (NATIONAL INSTITUTE OF FISHERIES SCIENCE, priority 2016, dated 2018)", "key": {"scuticociliates [1]": {"tested_on": "scuticociliates", "test": "Scuticociliates extermination effect of candidate substances in seawater medium", "assay_type": "cell-based", "experimental": "For this, scuticociliates were cultured in CHSE-214 cell line (using MEM medium), and then scuticociliates were collected and centrifuged with sterilized seawater or artificial seawater (20‰) to replace them with a seawater medium. Each of 100 μl (1×10^5) was dispensed into each well of 96 wells, followed by further culture for 30 minutes. The candidate substances diluted in seawater to have a volume of 100 μl per each concentration were mixed with scuticociliates to have the final volume of 200 μl and cultured for 4 hour."}, "scuticociliates [2]": {"tested_on": "scuticociliates", "test": "Scuticociliates extermination effect of candidate substances in MEM medium", "assay_type": "cell-based", "experimental": "CHSE-214 cell line into which scuticociliates were inoculated was cultured in advance. The CHSE-214 cell line was cultured in an incubator using an MEM medium at 22° C. Scuticociliates inoculated into the cell line proliferated for 3 days by which the number reaches to be capable of analyzing in vitro anti-scuticociliates effect. Scuticociliates that feed on the cell line and sufficiently grow were mixed with the candidate substance and the activity of scuticociliates was measured.\nIn order to analyze the antiparasitic activity of the above 19 types of candidate substances of scuticociliates extermination drugs, scuticociliates were cultured for 3 days, and 100 μl (1×10^5) was dispensed into each well of 96 wells. The candidate substances were diluted by each concentration and the final volume was dispensed into 100 μl. Thereafter, the two were mixed and finally made into 200 μl."}}, "data": [{"smiles": "COCC(=O)Nc1cc(Sc2ccccc2)ccc1N/C(=N\\C(=O)OC)NC(=O)OC", "note": "[Febantel]", "values": [{"measurement": "Survival or Death of scuticociliates (activity and shape, microscope)", "setting": "scuticociliates [1]", "value": "Survival"}, {"measurement": "Survival or Death of scuticociliates (activity and shape, microscope)", "setting": "scuticociliates [2]", "value": "Survival"}]}]}
